# Assay results as given in US10912838B2, “Carrier for use in delivering drug, conjugate, composition comprising same, and method for administrating same” (THE UNIVERSITY OF TOKYO, priority 2013, dated 2021).
# Conditions: 3 mg/mL, 200 μL i.v. over 2 hours, 20% glucose i.p. after 5 minutes, 1 hour after completion
substance,measurement,value
Glc(6)-PEG-polyaspartic acid,"accumulation in the brain, of the total dose per g of the brain",0.4%
